The values below come from ChEMBL document CHEMBL1127550, “(R)-methanandamide: a chiral novel anandamide possessing higher potency and metabolic stability” (J Med Chem, 1994).

By UniProt entry, the sequences of proteins in these tests, tags left out. Where a name states a change or a piece, a line headed by the entry shows the natural chain unless it says otherwise.
UniProt Q9QZN9: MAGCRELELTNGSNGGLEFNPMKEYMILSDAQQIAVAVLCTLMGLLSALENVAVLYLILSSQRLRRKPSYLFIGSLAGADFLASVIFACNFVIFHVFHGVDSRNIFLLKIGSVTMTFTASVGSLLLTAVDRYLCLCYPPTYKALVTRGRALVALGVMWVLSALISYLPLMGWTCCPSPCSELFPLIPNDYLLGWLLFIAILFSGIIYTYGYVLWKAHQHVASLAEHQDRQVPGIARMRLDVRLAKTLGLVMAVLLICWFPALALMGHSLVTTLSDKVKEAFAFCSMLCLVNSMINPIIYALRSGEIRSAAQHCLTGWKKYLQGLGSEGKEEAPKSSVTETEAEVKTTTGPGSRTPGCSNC
UniProt P20272: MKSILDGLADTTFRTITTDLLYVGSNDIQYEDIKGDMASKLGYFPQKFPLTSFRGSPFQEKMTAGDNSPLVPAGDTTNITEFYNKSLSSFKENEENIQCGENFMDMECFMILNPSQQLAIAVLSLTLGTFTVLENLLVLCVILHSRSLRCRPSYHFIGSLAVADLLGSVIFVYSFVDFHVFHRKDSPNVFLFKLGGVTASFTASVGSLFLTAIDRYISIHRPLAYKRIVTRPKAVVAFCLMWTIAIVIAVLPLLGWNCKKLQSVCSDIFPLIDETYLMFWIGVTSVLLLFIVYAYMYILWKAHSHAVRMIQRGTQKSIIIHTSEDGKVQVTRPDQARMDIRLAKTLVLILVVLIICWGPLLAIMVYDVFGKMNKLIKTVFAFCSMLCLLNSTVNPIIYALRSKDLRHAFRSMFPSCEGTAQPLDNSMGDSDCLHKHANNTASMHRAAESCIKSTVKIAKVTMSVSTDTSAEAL

In experiment [1] the target is T1, Cannabinoid receptor (Rattus norvegicus, UniProt Q9QZN9+P20272). As to the kind of experiment: Binding affinity for the cannabinoid receptor in the presence of phenylmethanesulfonyl fluoride (PMSF) was determined in rat fore brain membranes. It counts as cell membranes, Membrane.
Experiment [2] addresses T1, Cannabinoid receptor. As to the kind of experiment: Binding affinity for the cannabinoid receptor in the absence of phenylmethanesulfonyl fluoride (PMSF) was determined in rat fore brain membranes. It counts as cell membranes, Membrane.

As a reminder, the Ki is a dissociation constant, usually derived from enzyme kinetics or from competition with a known ligand. Consider `CCCCC/C=C\C/C=C\C/C=C\C/C=C\CCCC(=O)N[C@@H](C)CO`, for which the Ki on Cannabinoid receptor [1] came to 173 nM; at Cannabinoid receptor [2], 268 nM.
As for `CCCCC/C=C\C/C=C\C/C=C\C/C=C\CCCC(=O)NCCO` [ANANDAMIDE], the Ki on Cannabinoid receptor [1] was 78 nM; at Cannabinoid receptor [2], above 1180 nM.
The corresponding values for `CCCCC/C=C\C/C=C\C/C=C\C/C=C\CCCC(=O)N[C@H](C)CO` [METHANANDAMIDE] are 20 nM and 28 nM.
